These results are taken from ChEMBL document CHEMBL1134723, “Synthesis and evaluation of the sunflower derived trypsin inhibitor as a potent inhibitor of the type II transmembrane serine protease, matriptase” (Bioorg Med Chem Lett, 2001).

Molecules are shown by their SMILES.

The target in the test is T1, Suppressor of tumorigenicity 14 protein (Homo sapiens, UniProt Q9Y5Y6).
T1 sequence (Q9Y5Y6 whole entry): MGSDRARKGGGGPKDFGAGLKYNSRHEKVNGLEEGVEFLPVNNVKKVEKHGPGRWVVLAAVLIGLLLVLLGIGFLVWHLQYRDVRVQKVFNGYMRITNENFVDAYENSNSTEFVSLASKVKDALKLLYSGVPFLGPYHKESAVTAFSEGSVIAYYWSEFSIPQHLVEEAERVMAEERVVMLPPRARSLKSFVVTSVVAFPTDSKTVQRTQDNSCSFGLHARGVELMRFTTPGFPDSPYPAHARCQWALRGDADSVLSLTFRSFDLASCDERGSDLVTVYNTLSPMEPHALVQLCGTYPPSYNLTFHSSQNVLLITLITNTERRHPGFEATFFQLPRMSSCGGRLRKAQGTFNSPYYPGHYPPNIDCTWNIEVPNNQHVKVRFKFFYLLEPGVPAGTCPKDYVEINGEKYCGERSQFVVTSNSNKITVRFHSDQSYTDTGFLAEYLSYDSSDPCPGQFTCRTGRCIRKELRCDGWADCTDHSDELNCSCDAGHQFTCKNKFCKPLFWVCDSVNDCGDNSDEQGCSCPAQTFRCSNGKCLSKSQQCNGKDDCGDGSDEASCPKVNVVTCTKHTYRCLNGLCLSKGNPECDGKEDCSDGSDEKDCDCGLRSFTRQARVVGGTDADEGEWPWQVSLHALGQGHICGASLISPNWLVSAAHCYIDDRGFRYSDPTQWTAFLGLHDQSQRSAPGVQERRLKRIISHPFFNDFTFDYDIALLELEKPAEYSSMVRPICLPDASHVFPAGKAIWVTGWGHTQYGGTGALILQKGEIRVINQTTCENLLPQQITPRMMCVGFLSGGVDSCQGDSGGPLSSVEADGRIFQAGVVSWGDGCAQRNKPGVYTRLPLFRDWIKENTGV
Particulars: cancer cell lines.

In the case of `CC[C@H](C)[C@@H]1NC(=O)[C@@H]2CCCN2C(=O)[C@@H]2CCCN2C(=O)[C@H]([C@@H](C)CC)NC(=O)[C@H](CO)NC(=O)[C@H](CCCCN)NC(=O)[C@H]([C@@H](C)O)NC(=O)[C@@H]2CSSC[C@H](NC1=O)C(=O)N[C@@H](Cc1ccccc1)C(=O)N1CCC[C@H]1C(=O)N[C@@H](CC(=O)O)C(=O)NCC(=O)N[C@@H](CCCNC(=N)N)C(=O)N2`, the Ki is 0.92 nM.
